molecular target: integrin alpha(IIb)beta(3) (UniProt P08514 32-1039; P05106 27-788); assay: cell-based or functional assay

| Binder | IC50: platelet aggregation (ADP-induced, platelet-rich plasma) [nM] |
| --- | --- |
| TNK-(PA)7-RR (other) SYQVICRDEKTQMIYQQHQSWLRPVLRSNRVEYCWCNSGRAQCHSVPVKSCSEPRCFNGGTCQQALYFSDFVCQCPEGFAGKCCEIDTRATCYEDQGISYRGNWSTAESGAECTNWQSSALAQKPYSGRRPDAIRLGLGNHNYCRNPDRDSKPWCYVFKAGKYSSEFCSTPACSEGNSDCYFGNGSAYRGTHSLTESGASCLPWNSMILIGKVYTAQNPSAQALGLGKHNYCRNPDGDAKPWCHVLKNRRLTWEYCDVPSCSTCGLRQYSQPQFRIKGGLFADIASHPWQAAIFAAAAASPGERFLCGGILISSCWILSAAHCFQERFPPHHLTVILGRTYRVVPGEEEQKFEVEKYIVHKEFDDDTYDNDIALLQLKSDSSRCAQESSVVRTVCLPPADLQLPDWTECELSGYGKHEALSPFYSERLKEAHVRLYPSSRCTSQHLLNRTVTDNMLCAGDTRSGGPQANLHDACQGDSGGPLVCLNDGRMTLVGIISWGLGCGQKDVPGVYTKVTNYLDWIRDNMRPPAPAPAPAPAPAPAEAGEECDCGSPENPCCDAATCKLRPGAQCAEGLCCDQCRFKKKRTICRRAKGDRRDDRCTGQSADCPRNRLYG | 347 |
| TNK-EA3K(G4S)2-RR (other) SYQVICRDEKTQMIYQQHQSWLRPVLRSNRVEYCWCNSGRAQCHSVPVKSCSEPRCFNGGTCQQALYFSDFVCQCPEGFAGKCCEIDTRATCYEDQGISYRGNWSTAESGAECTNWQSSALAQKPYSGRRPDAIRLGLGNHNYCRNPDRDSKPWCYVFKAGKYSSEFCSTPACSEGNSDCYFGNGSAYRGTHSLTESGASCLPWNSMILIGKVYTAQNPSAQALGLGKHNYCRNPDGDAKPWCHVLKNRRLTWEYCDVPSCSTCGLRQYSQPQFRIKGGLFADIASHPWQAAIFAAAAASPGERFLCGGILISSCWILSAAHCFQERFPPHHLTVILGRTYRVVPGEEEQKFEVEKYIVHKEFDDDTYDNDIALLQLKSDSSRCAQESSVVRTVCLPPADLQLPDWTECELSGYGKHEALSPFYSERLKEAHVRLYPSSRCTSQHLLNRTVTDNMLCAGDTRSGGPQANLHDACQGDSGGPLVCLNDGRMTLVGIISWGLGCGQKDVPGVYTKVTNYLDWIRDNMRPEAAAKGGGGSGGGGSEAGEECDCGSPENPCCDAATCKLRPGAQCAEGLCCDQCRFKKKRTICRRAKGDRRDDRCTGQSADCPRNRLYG | 276 |
| TNK-(EA3K)3-RR (other) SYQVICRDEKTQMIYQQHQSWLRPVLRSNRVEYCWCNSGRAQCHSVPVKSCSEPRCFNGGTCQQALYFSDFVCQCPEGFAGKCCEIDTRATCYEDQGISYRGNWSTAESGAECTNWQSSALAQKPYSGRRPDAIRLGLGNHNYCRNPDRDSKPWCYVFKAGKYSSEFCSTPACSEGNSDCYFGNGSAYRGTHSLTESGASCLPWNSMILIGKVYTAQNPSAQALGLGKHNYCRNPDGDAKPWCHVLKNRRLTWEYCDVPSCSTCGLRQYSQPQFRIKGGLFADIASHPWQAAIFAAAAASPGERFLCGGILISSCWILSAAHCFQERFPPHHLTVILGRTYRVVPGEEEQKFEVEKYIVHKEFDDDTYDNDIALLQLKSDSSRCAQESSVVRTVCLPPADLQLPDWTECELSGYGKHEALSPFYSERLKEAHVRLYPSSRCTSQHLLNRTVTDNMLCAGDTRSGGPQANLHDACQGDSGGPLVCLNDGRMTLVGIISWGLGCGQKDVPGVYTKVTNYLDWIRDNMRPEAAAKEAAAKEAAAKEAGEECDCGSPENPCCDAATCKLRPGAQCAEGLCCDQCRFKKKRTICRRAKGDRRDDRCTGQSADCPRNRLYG | 458 |
| RR-(PA)5-TNK (other) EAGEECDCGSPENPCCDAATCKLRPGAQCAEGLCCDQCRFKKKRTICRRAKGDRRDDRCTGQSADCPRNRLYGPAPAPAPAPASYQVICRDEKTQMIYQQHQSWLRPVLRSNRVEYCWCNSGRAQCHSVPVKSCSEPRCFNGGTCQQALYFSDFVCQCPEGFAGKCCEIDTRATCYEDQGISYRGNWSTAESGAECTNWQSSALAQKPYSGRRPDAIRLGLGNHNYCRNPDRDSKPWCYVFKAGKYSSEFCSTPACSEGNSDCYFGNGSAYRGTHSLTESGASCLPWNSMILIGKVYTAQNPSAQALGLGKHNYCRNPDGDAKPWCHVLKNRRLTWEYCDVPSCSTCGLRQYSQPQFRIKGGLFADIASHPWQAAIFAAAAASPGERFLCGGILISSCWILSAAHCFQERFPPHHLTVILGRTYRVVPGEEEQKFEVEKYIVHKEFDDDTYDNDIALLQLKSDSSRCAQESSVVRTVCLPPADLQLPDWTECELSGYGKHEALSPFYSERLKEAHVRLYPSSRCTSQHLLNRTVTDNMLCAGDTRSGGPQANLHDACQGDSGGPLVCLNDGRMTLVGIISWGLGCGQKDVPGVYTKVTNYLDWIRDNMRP | 1370 |
| TNK-G9-RR (other) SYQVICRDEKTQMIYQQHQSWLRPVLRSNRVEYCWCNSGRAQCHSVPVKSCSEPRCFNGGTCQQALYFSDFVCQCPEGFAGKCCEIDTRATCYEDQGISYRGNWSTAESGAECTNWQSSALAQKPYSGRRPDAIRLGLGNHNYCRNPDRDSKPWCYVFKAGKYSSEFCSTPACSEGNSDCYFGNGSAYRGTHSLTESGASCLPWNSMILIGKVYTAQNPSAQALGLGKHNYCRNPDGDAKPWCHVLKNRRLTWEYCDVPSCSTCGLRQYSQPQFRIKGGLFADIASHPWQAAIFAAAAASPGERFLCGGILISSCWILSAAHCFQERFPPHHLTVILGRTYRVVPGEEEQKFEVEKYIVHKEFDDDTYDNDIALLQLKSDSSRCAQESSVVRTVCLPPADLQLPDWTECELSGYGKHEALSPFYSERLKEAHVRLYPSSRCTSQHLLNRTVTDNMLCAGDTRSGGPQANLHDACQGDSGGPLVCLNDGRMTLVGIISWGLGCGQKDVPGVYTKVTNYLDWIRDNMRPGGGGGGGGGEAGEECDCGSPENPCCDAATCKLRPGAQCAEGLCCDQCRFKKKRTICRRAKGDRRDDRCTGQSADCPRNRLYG | 567 |
| TNK-(G4S)3-RR (other) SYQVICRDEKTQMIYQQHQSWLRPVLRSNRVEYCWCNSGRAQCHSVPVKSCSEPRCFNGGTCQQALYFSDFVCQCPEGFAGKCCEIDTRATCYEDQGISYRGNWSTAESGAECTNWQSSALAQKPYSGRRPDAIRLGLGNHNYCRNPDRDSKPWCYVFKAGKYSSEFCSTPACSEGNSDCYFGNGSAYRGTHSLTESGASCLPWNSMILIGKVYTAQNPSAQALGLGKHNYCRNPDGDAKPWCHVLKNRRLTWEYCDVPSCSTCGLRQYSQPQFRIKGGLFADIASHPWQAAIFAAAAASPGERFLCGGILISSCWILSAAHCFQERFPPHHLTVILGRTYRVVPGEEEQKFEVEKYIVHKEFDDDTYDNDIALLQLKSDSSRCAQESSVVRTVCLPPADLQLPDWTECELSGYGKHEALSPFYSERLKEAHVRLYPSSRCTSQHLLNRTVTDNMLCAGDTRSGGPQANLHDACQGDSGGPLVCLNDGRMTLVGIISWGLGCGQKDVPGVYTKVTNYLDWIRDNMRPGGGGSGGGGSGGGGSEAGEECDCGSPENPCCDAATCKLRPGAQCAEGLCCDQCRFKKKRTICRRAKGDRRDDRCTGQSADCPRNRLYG | 249 |
| TNK-(PA)3-RR (other) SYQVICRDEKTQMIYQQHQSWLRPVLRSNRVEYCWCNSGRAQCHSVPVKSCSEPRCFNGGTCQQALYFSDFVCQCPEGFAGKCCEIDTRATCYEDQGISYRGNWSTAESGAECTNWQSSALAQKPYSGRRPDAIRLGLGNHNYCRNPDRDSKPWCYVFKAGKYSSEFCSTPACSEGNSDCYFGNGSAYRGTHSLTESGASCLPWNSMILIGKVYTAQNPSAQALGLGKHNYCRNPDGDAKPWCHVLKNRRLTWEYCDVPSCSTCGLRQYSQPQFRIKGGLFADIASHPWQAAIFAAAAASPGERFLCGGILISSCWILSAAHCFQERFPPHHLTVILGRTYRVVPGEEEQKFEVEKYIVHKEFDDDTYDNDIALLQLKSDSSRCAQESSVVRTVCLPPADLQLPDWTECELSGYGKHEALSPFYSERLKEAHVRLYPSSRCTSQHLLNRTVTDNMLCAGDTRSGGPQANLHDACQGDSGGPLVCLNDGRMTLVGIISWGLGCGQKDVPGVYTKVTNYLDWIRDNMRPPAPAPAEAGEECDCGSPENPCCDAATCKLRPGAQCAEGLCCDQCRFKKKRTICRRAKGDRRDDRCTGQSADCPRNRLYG | 506 |
| TNK-(PA)5-RR (other) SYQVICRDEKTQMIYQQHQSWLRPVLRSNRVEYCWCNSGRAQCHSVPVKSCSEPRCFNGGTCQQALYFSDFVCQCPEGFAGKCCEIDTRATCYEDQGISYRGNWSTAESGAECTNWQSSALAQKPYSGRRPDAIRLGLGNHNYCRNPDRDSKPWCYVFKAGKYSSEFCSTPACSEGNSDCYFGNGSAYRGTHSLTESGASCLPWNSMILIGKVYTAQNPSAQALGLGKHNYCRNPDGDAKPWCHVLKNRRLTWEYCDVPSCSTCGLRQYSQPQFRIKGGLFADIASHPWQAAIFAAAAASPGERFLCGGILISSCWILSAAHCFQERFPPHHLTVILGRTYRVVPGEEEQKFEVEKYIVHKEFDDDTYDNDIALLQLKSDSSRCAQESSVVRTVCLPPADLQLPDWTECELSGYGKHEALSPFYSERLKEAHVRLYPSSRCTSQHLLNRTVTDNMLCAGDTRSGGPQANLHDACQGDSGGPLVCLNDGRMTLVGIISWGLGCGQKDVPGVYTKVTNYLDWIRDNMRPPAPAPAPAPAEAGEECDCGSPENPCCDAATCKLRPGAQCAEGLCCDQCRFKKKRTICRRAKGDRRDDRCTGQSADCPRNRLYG | 380 |

Reference: patent publication US20240084280A1 (NATIONAL CHENG KUNG UNIVERSITY, published 2024)
